How the values were obtained:
[1] = Reverse phase and cation exchange chromatography of supernatant of rhBMP-2 precipitated with Na2SO4; type: physicochemical
Description: Reverse Phase and Cation Exchange Chromatography were performed on supernatant obtained from rhBMP-2 precipitated with 5 mM and 18 mM Na2SO4. The supernatant was separated from the pellet by microcentrifugation at ˜14,000 RPM for 30 minutes at about 2° C. to 8° C.
The six dimeric isoforms of rhBMP-2 were separated by cation exchange chromatography (FIG. 1). […] The increase in optical density became apparent at about a range of 3 mM to 4 mM Na2SO4. The amount of precipitated material was determined by reverse phase chromatography by comparing the protein concentration in the starting material with that in the supernatant of the precipitated material. At 5 mM Na2SO4, the protein concentration had decreased by 63% of the original amount. At 18 mM Na2SO4 the protein concentration had decreased by 81% of the initial concentration. The supernatants of these precipitates were analyzed by cation exchange chromatography.

[2] = Solubility profile of rhBMP-2 (salt concentration, pH); type: physicochemical
From the text: rhBMP-2 has a unique solubility profile.

rhBMP-2: Recombinant human BMP-2 produced in Cho cells, a mixture of six dimeric isoforms
decrease of protein concentration in supernatant vs original amount ([1]; 5 mM Na2SO4): 63%
decrease of protein concentration in supernatant vs initial concentration ([1]; 18 mM Na2SO4): 81%
solubility profile ([2]; dependence on salt concentration and pH): most soluble at low salt concentrations and low pH
ionic strength above which it remains soluble at higher pH values ([2]; higher pH values, increased salt concentration): > 0.15 M
